pIC50: −log10 of the molar value.

Protein sequences, listed by entry. Tags and fused reporters are not part of them.
UniProt P04049, whole entry Y340E/Y341E: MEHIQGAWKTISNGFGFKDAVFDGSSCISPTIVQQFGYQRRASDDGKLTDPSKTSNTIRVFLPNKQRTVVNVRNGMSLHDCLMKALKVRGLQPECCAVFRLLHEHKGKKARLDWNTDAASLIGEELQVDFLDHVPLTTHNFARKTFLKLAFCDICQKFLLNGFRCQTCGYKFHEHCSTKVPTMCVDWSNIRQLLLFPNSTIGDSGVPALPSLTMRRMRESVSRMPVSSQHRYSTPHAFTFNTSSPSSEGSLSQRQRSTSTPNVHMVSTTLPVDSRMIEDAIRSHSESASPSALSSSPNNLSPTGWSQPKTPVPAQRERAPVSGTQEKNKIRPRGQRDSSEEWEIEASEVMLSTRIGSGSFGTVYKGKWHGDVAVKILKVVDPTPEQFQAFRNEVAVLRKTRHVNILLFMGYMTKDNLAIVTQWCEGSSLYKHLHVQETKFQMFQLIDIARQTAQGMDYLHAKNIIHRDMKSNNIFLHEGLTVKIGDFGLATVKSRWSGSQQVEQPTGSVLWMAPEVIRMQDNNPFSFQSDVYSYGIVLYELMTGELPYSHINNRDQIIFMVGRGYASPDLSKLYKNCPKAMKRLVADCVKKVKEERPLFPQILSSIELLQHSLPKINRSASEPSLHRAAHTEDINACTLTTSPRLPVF

In the first experiment the target is C-Raf FL (full-length C-Raf protein, Y340E and Y341E activating mutations) (Homo sapiens (Human), UniProt P04049, Y340E/Y341E). Format: biochemical. The conditions noted are these: AlphaScreen, 60 min pre-incubation, 1 hour reaction; read-out: c-Raf FL IC-50.
As to `Cc1ccc(NC(=O)c2ccnc(C(C)(C)F)c2)cc1-c1cc(N2CCOCC2)n(C)c(=O)c1` [Example 479, 2-(2-fluoropropan-2-yl)-N-(4-methyl-3-(1-methyl-6-morpholino-2-oxo-1,2-dihydropyridin-4-yl)phenyl)isonicotinamide], the pIC50 is 9.52.
Still for that read-out and setting: in the case of `Cc1ncc(NC(=O)c2ccnc(C(F)F)c2)cc1-c1cc(N2CCOCC2)c(=O)n(C)n1` [Example 680, 2-(difluoromethyl)-N-(6-methyl-5-(1-methyl-5-morpholino-6-oxo-1,6-dihydropyridazin-3-yl)pyridin-3-yl)isonicotinamide] it was 8.40.
Same read-out and setting: with `Cc1ncc(NC(=O)c2cccc(C(F)(F)F)c2)cc1-c1cc(N2CCOCC2)nc(OC2CNC2)n1` [Example 776, N-(5-(2-(azetidin-3-yloxy)-6-morpholinopyrimidin-4-yl)-6-methylpyridin-3-yl)-3-(trifluoromethyl)benzamide] the figure was 4.97; with `CCc1cc(C(=O)Nc2ccc(C)c(-c3cc(N4CCOCC4)c(=O)n(C)n3)c2)ccn1` [Example 642, 2-ethyl-N-(4-methyl-3-(1-methyl-5-morpholino-6-oxo-1,6-dihydropyridazin-3-yl)phenyl)isonicotinamide], 9.40.
The same measure, in the same setting: in the case of `Cc1ncc(C(=O)Nc2cccc(C(F)F)c2)cc1-c1cc(N2CCOCC2)c(=O)n(C)c1` [Example 445, N-(3-(difluoromethyl)phenyl)-1′,2-dimethyl-5′-morpholino-6′-oxo-1′,6′-dihydro-[3,3′-bipyridine]-5-carboxamide] it was 8.24; in that of `Cc1ccc(NC(=O)c2cccc(C(C)(C)C#N)c2)cc1-c1cc(N2CCOCC2)c2nccn2n1` [Example 846, 3-(2-cyanopropan-2-yl)-N-(4-methyl-3-(8-morpholinoimidazo[1,2-b]pyridazin-6-yl)phenyl)benzamide], 9.70; in that of `Cc1ccc(NC(=O)c2ccnc(C(C)(C)F)c2)cc1-c1cc(N2CCOC[C@@H]2C)c(=O)n(C)n1` [Example 662, (S)-2-(2-fluoropropan-2-yl)-N-(4-methyl-3-(1-methyl-5-(3-methylmorpholino)-6-oxo-1,6-dihydropyridazin-3-yl)phenyl)isonicotinamide], 8.89.
`Cc1ccc(NC(=O)c2cccc(C(F)(F)F)c2)cc1-c1nc(N2CCOCC2)c2ncsc2n1` [Example 839, N-(4-methyl-3-(7-morpholinothiazolo[5,4-d]pyrimidin-5-yl)phenyl)-3-(trifluoromethyl)benzamide]: the pIC50 is 9.52.
In the case of `Cc1ncc(NC(=O)c2cccc(C(F)(F)F)c2)cc1-c1cc(N2CCOCC2)nc(N2C(=O)OC[C@@H]2C)n1` [Example 781, (S)—N-(6-methyl-5-(2-(4-methyl-2-oxooxazolidin-3-yl)-6-morpholinopyrimidin-4-yl)pyridin-3-yl)-3-(trifluoromethyl)benzamide], the pIC50 is 8.57.
With `CCNc1nc(-c2cc(NC(=O)c3cnnc(C4CC4)c3)cnc2C)cc(N2CCOCC2)n1` [Example 727, 6-cyclopropyl-N-(5-(2-(ethylamino)-6-morpholinopyrimidin-4-yl)-6-methylpyridin-3-yl)pyridazine-4-carboxamide], the pIC50 was 8.57.
Same read-out and setting: in the case of `Cc1ncc(NC(=O)c2ccnc(C3CC3)c2)cc1-c1cc(N2CCOCC2)n(C)c(=O)c1` [Example 511, 2-cyclopropyl-N-(1′,2-dimethyl-6′-morpholino-2′-oxo-1′,2′-dihydro-[3,4′-bipyridin]-5-yl)isonicotinamide] it was 8.89; in that of `CCOc1nnc(-c2cc(NC(=O)c3cccc(C(F)(F)F)c3)cnc2C)cc1N1CCOC[C@H]1C` [Example 622, (R)—N-(5-(6-ethoxy-5-(3-methylmorpholino)pyridazin-3-yl)-6-methylpyridin-3-yl)-3-(trifluoromethyl)benzamide], 8.92.
On the same count and under the same terms, in the case of `Cc1ccc(NC(=O)c2ccnc(C(F)(F)F)c2)cc1-c1cc(N2CCOCC2)nc(N2CC(O)C2)n1` [Example 773, N-(3-(2-(3-hydroxyazetidin-1-yl)-6-morpholinopyrimidin-4-yl)-4-methylphenyl)-2-(trifluoromethyl)isonicotinamide] it was 9.40.

The same experiment, now with this note: AlphaScreen, 60 min pre-incubation, reaction 1 hour at room temperature; read-out: c-Raf FL IC-50.
Take `Cc1ccc(NC(=O)c2cc(C(C)(F)F)ccn2)cc1-c1cc(N2CCOCC2)c(=O)n(C)c1` [Example 905, 4-(1,1-difluoroethyl)-N-(4-methyl-3-(1-methyl-5-morpholino-6-oxo-1,6-dihydropyridin-3-yl)phenyl)picolinamide]: the pIC50 was 9.24.
The same measure, in the same setting: with `Cc1ccc(NC(=O)c2ccnc(C(F)(F)F)c2)cc1-c1cc(NC2CCOC2)nc(N2CCOCC2)c1` (centres unmarked) [Example 1054, N-(4-methyl-3-(2-morpholino-6-((tetrahydrofuran-3-yl)amino)pyridin-4-yl)phenyl)-2-(trifluoromethyl)isonicotinamide] the figure was 9.48; with `Cc1ccc(NC(=O)c2cccc(C(F)(F)F)c2)cc1-c1ccnc(N2CCOCC2=O)c1` [Example 1134], 9.09.
On the same count and under the same terms, in the case of `Cc1ncc(NC(=O)c2ccnc(C(C)C)c2)cc1-c1cc(N2CCOCC2)c2nccn2c1` [Example 882, 2-isopropyl-N-(6-methyl-5-(8-morpholinoimidazo[1,2-a]pyridin-6-yl)pyridin-3-yl)isonicotinamide] it was 8.82.
Still for that read-out and setting: with `Cc1ccc(NC(=O)c2ccnc(C(C)(C)C#N)c2)cc1-c1nc(N2CCOCC2)c2[nH]ccc2n1` [Example 863, 2-(2-cyanopropan-2-yl)-N-(4-methyl-3-(4-morpholino-5H-pyrrolo[3,2-d]pyrimidin-2-yl)phenyl)isonicotinamide] the figure was 9.22; with `Cc1ncc(NC(=O)c2cccc(C(F)(F)F)c2)cc1-c1ccnc(N2CCOCC2=O)c1` [Example 1135, N-(2-methyl-2′-(3-oxomorpholino)-[3,4′-bipyridin]-5-yl)-3-(trifluoromethyl)benzamide], 8.13; with `Cc1ccc(NC(=O)c2ccnc(C(C)(C)F)c2)cc1-c1cc(OCCO)nc(N2CCOCC2)c1` [Example 1158, 2-(2-fluoropropan-2-yl)-N-(3-(2-(2-hydroxyethoxy)-6-morpholinopyridin-4-yl)-4-methylphenyl)isonicotinamide], 9.43.
For `CCn1cc(C(=O)Nc2ccc(C)c(-c3cc(N4CCOCC4)nc(N4CCOCC4)c3)c2)cc(C(F)(F)F)c1=O` [Example 1114, N-(3-(2,6-dimorpholinopyridin-4-yl)-4-methylphenyl)-1-ethyl-6-oxo-5-(trifluoromethyl)-1,6-dihydropyridine-3-carboxamide], the pIC50 was 9.17.
The same measure, in the same setting: with `Cc1ncc(NC(=O)c2cc(C(F)(F)F)ccn2)cc1-c1cc(N2CCOCC2)c(S(C)(=O)=O)nn1` [Example 923, N-(6-methyl-5-(6-(methylsulfonyl)-5-morpholinopyridazin-3-yl)pyridin-3-yl)-4-(trifluoromethyl)picolinamide] the figure was 8.97.
The same measure, in the same setting: with `Cc1ccc(NC(=O)c2cccc(C(F)(F)F)c2)cc1-c1cc(NCC(C)(C)O)nc(N2CCOCC2)c1` [Example 1062, N-(3-(2-((2-hydroxy-2-methylpropyl)amino)-6-morpholinopyridin-4-yl)-4-methylphenyl)-3-(trifluoromethyl)benzamide] the figure was 9.60; with `Cc1ncc(NC(=O)c2ccnc(C3CC3)c2)cc1-c1cc(C2COCCO2)nc(N2CCOCC2)c1` (centres unmarked) [Example 1169, N-(2′-(1,4-dioxan-2-yl)-2-methyl-6′-morpholino-[3,4′-bipyridin]-5-yl)-2-cyclopropylisonicotinamide], 9.22.

Staying with this experiment, now noted: Table 2; AlphaScreen, 1 hour reaction; read-out: c-Raf FL IC-50.
For the molecule `CCNc1nc(-c2cc(NC(=O)c3cccc(C(F)(F)F)c3)ccc2C)cc(N2CCOCC2)n1` [Example 28, N-(3-(2-(ethylamino)-6-morpholinopyrimidin-4-yl)-4-methylphenyl)-3-(trifluoromethyl)benzamide], the pIC50 was 9.70.
The same measure, in the same setting: in the case of `Cc1ncc(NC(=O)c2cnnc(C3CC3)c2)cc1-c1cnc(N(C)C)c(N2CCOCC2)c1` [Example 271, 6-cyclopropyl-N-(6′-(dimethylamino)-2-methyl-5′-morpholino-[3,3′-bipyridin]-5-yl)pyridazine-4-carboxamide] it was 9.52.
As for `Cc1ccc(C(=O)Nc2cccc(C(F)(F)F)c2)cc1-c1cc(N2CCOCC2=O)nc(N2CCOCC2)n1` [Example 4, 4-methyl-3-(2-morpholino-6-(3-oxomorpholino)pyrimidin-4-yl)-N-(3-(trifluoromethyl)phenyl)benzamide], the pIC50 is 9.40.
Same read-out and setting: with `CCOc1cc(C(=O)Nc2cnc(C)c(-c3cc(N4CCOCC4)c(=O)n(C)c3)c2)ccc1F` [Example 395, N-(1′,2-dimethyl-5′-morpholino-6′-oxo-1′,6′-dihydro-[3,3′-bipyridin]-5-yl)-3-ethoxy-4-fluorobenzamide] the figure was 8.66; with `Cc1ccc(NC(=O)c2ccnc(C(C)(C)C#N)c2)cc1-c1cc(N2CCOCC2)c(=O)n(CCC#N)c1` [Example 335, N-(3-(1-(2-cyanoethyl)-5-morpholino-6-oxo-1,6-dihydropyridin-3-yl)-4-methylphenyl)-2-(2-cyanopropan-2-yl)isonicotinamide], 8.70.
On the same count and under the same terms, in the case of `Cc1ncc(NC(=O)c2ccnc(C(F)F)c2)cc1-c1cc(N2CCOCC2)c(=O)n(C)c1` [Example 392, 2-(difluoromethyl)-N-(1′,2-dimethyl-5′-morpholino-6′-oxo-1′,6′-dihydro-[3,3′-bipyridin]-5-yl)isonicotinamide] it was 8.41; in that of `Cc1ccc(C(=O)Nc2cccnc2)cc1-c1cc(N2CCOCC2)c(=O)n(C)c1` [Example 433, 4-methyl-3-(1-methyl-5-morpholino-6-oxo-1,6-dihydropyridin-3-yl)-N-(pyridin-3-yl)benzamide], 7.25.
Still for that read-out and setting: in the case of `Cn1cc(-c2cc(NC(=O)c3ccnc(C(F)(F)F)c3)ccc2Cl)cc(N2CCOCC2)c1=O` [Example 413, N-(4-chloro-3-(1-methyl-5-morpholino-6-oxo-1,6-dihydropyridin-3-yl)phenyl)-2-(trifluoromethyl)isonicotinamide] it was 10.05.

For the origin of these results see US9694016B2 (Novartis AG, priority 2013, dated 2017).
